## AlphaSeq binding of Ab-91 heavy chain variants to a spike HR2 peptide

Values reported by Engelhart et al. 2022, doi:10.1038/s41597-022-01779-4 (FLAb copy).

Target peptide (SARS-CoV-2 spike, HR2 region): PDVDLGDISGINAS

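The starting antibody came from a phage panning campaign against this peptide. Library AAYL51 holds single substitutions and randomly drawn double and triple substitutions in the CDRs. Affinity was read by AlphaSeq, a pooled yeast mating assay with surface-displayed partners. Mating (16 h, 30 °C) was followed by selection of diploids and sequencing of their barcodes. Read counts were normalised to the haploid input and turned into Kd by a linear fit to BCL2-family pairs of known affinity, for each replicate. The assay was run in three technical replicates.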

Each scFv is VL, the linker GGGGSGGGGSGGGGS, VH, as in the parent Ab-91, and differs from it in the CDRs of the heavy chain only.
VL: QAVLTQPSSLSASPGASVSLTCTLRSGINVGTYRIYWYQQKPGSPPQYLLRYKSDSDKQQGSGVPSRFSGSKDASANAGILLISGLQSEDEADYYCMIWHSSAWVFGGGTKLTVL
VH: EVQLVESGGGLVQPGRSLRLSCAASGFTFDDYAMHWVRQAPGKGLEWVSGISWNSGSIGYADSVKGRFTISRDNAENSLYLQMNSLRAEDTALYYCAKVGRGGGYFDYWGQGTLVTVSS

Each variant is given by its three heavy chain CDRs, as the data file delimits them; those of the parent are GFTFDDYAMH, GISWNSGSIGYADSVK, VGRGGGYFDY.
Affinities are written as log10 Kd with Kd in nM; a lower number is a better binder.
A mean of the replicates is given; it leaves out those without a signal.
"ND" means that the variant was in the library but no mating with the target was seen in that replicate; the authors take this as a sign of poor binding, and no number exists.
Background: pairings of library AAYL51 with three empty control strains gave a value in 21% of cases (median 4.54, 5th percentile 3.26). Values in that range, when seen in few replicates, are hard to tell from nonspecific mating. For each scFv, signals with the empty controls are counted beside the result, with their mean in brackets.
Parent in this assay: reference entry 1.86, copy in this library 0.88.

CDR-H1	CDR-H2	CDR-H3	log10 Kd (nM) by replicate	log10 Kd (nM), mean	empty controls
GFTFDDYAMH	GISWNSGSIGYADSVY	VSRGGGYFDW	4.23 / 4.28 / ND	4.26	6 of 9 (4.76)
GFTFDDYAMH	GISWNSGSIGYADHVK	VGRGGGYKDY	1.68 / 1.61 / 1.13	1.47	0 of 9
GFTFDDYRMH	GISWNSGSIWYADSVY	VGRGGGYFDY	ND / ND / ND	ND	0 of 9
GFTFDDYAMH	GYSGNSGSIGYLDSVK	VGRGGGYFDY	ND / ND / ND	ND	2 of 9 (3.54)
GFIFDDEAMH	GISWNSGSIGYADSVK	VGRGGGYFDY	ND / ND / ND	ND	0 of 9
GFTFDDYALH	GISWNSGSIGYTDSVK	VGRGNGYFDY	4.47 / 5.33 / 4.83	4.88	5 of 9 (5.03)
GFTFDDYALH	GISWNSGSIGYAQSVK	VGRGGGYFDV	3.68 / 3.62 / ND	3.65	4 of 9 (4.00)
AFTFDDYAMH	GISHNSGSIGYADSVK	VGRGGGYFGY	4.53 / ND / ND	4.53	1 of 9 (4.04)
GFTMDDYAMH	GISWNSGSRGYADSVK	VGRGGGYFTY	0.99 / 1.12 / 0.42	0.84	1 of 9 (1.89)
GFTFDDYAMH	GISWESGSIGYADSVK	VGQGGGYFDY	1.48 / 1.88 / 1.61	1.65	2 of 9 (4.35)
GFTFDDWACH	GISWNSGSIGYADSVK	VGVGGGYFDY	ND / ND / ND	ND	1 of 9 (4.12)
GFTFDDYAMH	GIHWNYGSIGYADSVK	VGRGGGYRDY	ND / ND / ND	ND	1 of 9 (4.03)
GPTFDDYLMH	GISWNSGSIGYADSVK	VGRLGGYFDY	ND / ND / ND	ND	1 of 9 (3.76)
GFTFDDYAMH	GISWNSGSYGYADSVK	VGRWGGYFDY	5.50 / 4.73 / 4.71	4.98	6 of 9 (4.80)
GFTFDDYAMH	GISWNSGSIGYADSCN	VGRGGGYFDY	3.36 / 3.32 / 2.88	3.19	5 of 9 (4.80)
QFTFMDYAMH	GISWNSGSIGYADSVK	VGRGGGYFDY	3.54 / 3.19 / 3.03	3.25	2 of 9 (3.85)
KFTFDDYAMH	GISWNSGSIGMADLVK	VGRGGGYFDY	4.52 / 6.06 / 5.58	5.39	8 of 9 (5.08)
GYTFDDYAMH	GISWNSGSHGYADSVK	VGRGGGTFDY	3.38 / 4.70 / ND	4.04	2 of 9 (4.13)
GFTFDDYAMH	VISWNSGSIGYADSVK	VDRGGGYSDY	ND / ND / ND	ND	2 of 9 (5.19)
GFTFDDEAMH	GISWNSGWGGYADSVK	VGRGGGYFDY	5.57 / 6.36 / 4.72	5.55	3 of 9 (5.05)
GFEFDDYVMH	GISWNSGSIGYADSVK	EGRGGGYFDY	ND / ND / ND	ND	2 of 9 (4.39)
GGTFDDYAMH	GISWNSGSIGYWNSVK	VGRGGGYFDY	ND / 5.59 / ND	5.59	4 of 9 (4.95)
GFTFDDYAMH	GISWQSGSIGYIDSVK	VGRGGGYFDE	4.61 / 4.01 / 5.42	4.68	3 of 9 (5.11)
GFTFDDYAMH	GISWNSGSIGYADSVK	VGRGGGSFDE	1.56 / 1.57 / 1.01	1.38	2 of 9 (3.73)
GFTFPDNAMH	GISWNSGSIGRADSVK	VGRGGGYFDY	ND / ND / ND	ND	0 of 9
GFTFDDYAMH	GISWNKGMIGYADSVK	VGRGGGYFGY	ND / 4.27 / 4.28	4.28	3 of 9 (4.57)
GFTFDDYAMH	GISGNSGSIGYADSVK	VGRTGGIFDY	ND / ND / ND	ND	1 of 9 (3.50)
GPTFDDYAMH	GISWNSQSIGYADSVK	VGRGGGLFDY	6.57 / 4.86 / ND	5.72	3 of 9 (5.38)
GFTFDDYAMH	GISWQSGSIGDADSVK	VGRGGGYFLY	ND / ND / ND	ND	0 of 9
GFTFDDYAMH	GISGSSGSIGYADSVK	VGEGGGYFDY	ND / ND / ND	ND	0 of 9
GFTFDDYAMH	MICWNSGSIGYADSVK	VGRGGGYHDY	ND / ND / ND	ND	1 of 9 (3.03)
GFTFDDYAME	GISWNSGSIGHADSVK	VGRGGGYFDY	ND / ND / ND	ND	0 of 9
GFTFDDYAFH	GISWNSGSIGYADSVK	VQRGGGTFDY	ND / ND / ND	ND	1 of 9 (2.91)
GFTFDDRAMH	GISWNSGWIGYADSVK	VGRGGGWFDY	4.07 / ND / ND	4.07	0 of 9
GFTFDDYAMH	GISWNSGSSGYADSVK	VGRGGAYFDG	ND / ND / ND	ND	1 of 9 (3.35)
GFTFDDYAMH	GISWNSISIGYADSVK	VGRGGGYMDY	1.22 / 1.55 / 0.49	1.09	3 of 9 (4.51)
GDLFDDYAMH	GISWNQGSIGYADSVK	VGRGGGYFDY	3.83 / 5.38 / 4.84	4.68	0 of 9
DFTFDDYAMH	GISWNSGSAGYADEVK	VGRGGGYFDY	6.49 / 6.40 / 5.58	6.16	7 of 9 (5.09)
GFTFDDYAMH	GHSWGSGSIGYADSVK	VKRGGGYFDY	ND / ND / ND	ND	0 of 9
GFTFDDYASH	GISWNSGSIGYADSVK	VGRQGGYFDY	ND / 5.34 / 3.98	4.66	3 of 9 (4.54)
GFTFDDYAMH	GIKWNSGSIGYADSVD	VGRGGVYFDY	5.35 / ND / ND	5.35	5 of 9 (4.74)
GFTFVDYAMH	GISWNSGSAGYADSVK	VGRGGGYFDL	4.13 / ND / ND	4.13	3 of 9 (3.83)
GFTPDDYAMH	GISWNSTSIGYADSSK	VGRGGGYFDY	ND / ND / ND	ND	0 of 9

For reference, 3 entries of the list once more:

{"CDR-H1": "GFTFDDYAMH", "CDR-H2": "GISWNSGSIGYADSCN", "CDR-H3": "VGRGGGYFDY", "log10 Kd (nM) by replicate": "3.36 / 3.32 / 2.88", "log10 Kd (nM), mean": "3.19", "empty controls": "5 of 9 (4.80)"}
{"CDR-H1": "GFEFDDYVMH", "CDR-H2": "GISWNSGSIGYADSVK", "CDR-H3": "EGRGGGYFDY", "log10 Kd (nM) by replicate": "ND / ND / ND", "log10 Kd (nM), mean": "ND", "empty controls": "2 of 9 (4.39)"}
{"CDR-H1": "GFTFDDYAMH", "CDR-H2": "GISWNSGSIGYADSVK", "CDR-H3": "VGRGGGSFDE", "log10 Kd (nM) by replicate": "1.56 / 1.57 / 1.01", "log10 Kd (nM), mean": "1.38", "empty controls": "2 of 9 (3.73)"}